According to patent publication US20230192765A1, “PEPTIDES TARGETING SHP2 AND USES THEREOF” (UNIVERSITÀ DEGLI STUDI DI ROMA "TOR VERGATA", priority 2020, published 2023):

Test system: NIH3T3 cells
Assay: Cell uptake experiments (FACS)

In the case of `CC[C@H](C)[C@H](NC(=O)[C@H](Cc1ccc(OP(=O)(O)O)cc1)NC(=O)[C@H](CC(N)=O)NC(=O)[C@H](CC(C)C)NC(=O)CNC(=O)c1ccc2c(c1)C(=O)OC21c2ccc(O)cc2Oc2cc(O)ccc21)C(=O)N[C@@H](CC(=O)O)C(=O)N[C@@H](CC(C)C)C(=O)N[C@@H](CC(=O)O)C(=O)N[C@@H](Cc1c[nH]c2ccccc12)C(N)=O`, the “cell uptake, non-covalent strategy” value (mixed with Pep1 CPP) is reported as “efficiently obtained” and the spontaneous cell uptake (no CPP, 120 minutes) is reported as “minimal”.
